From patent US10377744B2, “Potent soluble epdxide hydrolase inhibitors” (Eicosis, LLC, priority 2014, dated 2019)

The chains behind the UniProt entries cited, without tags or fusion partners.
UniProt P34913, whole entry: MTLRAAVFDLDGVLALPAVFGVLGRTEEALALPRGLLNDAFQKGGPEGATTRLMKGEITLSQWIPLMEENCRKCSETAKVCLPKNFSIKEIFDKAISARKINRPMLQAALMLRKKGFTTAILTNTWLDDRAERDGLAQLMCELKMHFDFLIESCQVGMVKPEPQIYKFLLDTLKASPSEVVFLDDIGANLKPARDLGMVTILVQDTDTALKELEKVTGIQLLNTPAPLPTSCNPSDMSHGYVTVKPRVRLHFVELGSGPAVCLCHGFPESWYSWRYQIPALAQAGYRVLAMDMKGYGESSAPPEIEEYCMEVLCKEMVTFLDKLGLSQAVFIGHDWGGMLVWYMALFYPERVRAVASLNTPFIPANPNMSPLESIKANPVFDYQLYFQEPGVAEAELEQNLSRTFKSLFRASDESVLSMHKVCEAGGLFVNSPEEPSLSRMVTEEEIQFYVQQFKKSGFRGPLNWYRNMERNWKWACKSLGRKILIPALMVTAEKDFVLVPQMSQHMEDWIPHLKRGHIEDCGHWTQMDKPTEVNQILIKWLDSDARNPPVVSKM

How the values were obtained:
[1] = Experimental logP by HPLC method
human sEH = human sEH (Homo sapiens (Human), UniProt P34913)

Row | SMILES | chromatographic logP [1] | t1/2 (min) human sEH (human sEH) [min]
1 | O=C(Nc1ccc(OC(F)(F)F)cc1)NC1CCN(C(=O)C2=COCC2)CC1 [Compound 5, 1-(1-(4,5-dihydrofuran-3-carbonyl)piperidin-4-yl)-3-(4-(trifluoromethoxy)phenyl)urea] | 3.49 | –
2 | O=C(Nc1ccc(C(F)(F)F)cc1)NC1CCN(C(=O)C2CCOC2)CC1 (stereo not shown) [Compound 18, 1-(1-(tetrahydrofuran-3-carbonyl)piperidin-4-yl)-3-(4-(trifluoromethyl)phenyl)urea] | – | 10
3 | O=C(Nc1ccc(OC(F)(F)F)cc1)NC1CCN(C(=O)C2CCCOC2)CC1 (stereo not shown) [Compound 8, 1-(1-(tetrahydro-2H-pyran-3-carbonyl)piperidin-4-yl)-3-(4-(trifluoromethoxy)phenyl)urea] | 3.42 | –
4 | Cc1ccoc1C(=O)N1CCC(NC(=O)Nc2ccc(OC(F)(F)F)cc2)CC1 | 4.48 | –
5 | O=C(Nc1ccc(OC(F)(F)F)cc1)NC1CCN(C(=O)c2cc[nH]c2)CC1 [Compound 2, 1-(1-(1H-pyrrole-3-carbonyl)piperidin-4-yl)-3-(4-(trifluoromethoxy)phenyl)urea] | 3.34 | –
6 | O=C(Nc1ccc(C(F)(F)F)cc1)NC1CCN(C(=O)c2ccoc2)CC1 [Compound 10, 1-(1-(furan-3-carbonyl)piperidin-4-yl)-3-(4-(trifluoromethyl)phenyl)urea] | 3.5 | –
7 | O=C(Nc1ccc(OC(F)(F)F)cc1)NC1CCN(C(=O)c2ccoc2)CC1 [Compound 3, 1-(1-(furan-3-carbonyl)piperidin-4-yl)-3-(4-(trifluoromethoxy)phenyl)urea] | 3.63 | –
8 | O=C(Nc1ccc(OC(F)(F)F)c(F)c1)NC1CCN(C(=O)C2CCCOC2)CC1 (stereo not shown) [Compound 27] | 4.09 | –
9 | Cc1occc1C(=O)N1CCC(NC(=O)Nc2ccc(C(F)(F)F)cc2)CC1 [Compound 13, 1-(1-(2-methylfuran-3-carbonyl)piperidin-4-yl)-3-(4-(trifluoromethyl)phenyl)urea] | 4.19 | –
10 | O=C(Nc1ccc(C(F)(F)F)cc1)NC1CCN(C(=O)C2CCOCC2)CC1 [Compound 9, 1-(1-(tetrahydro-2H-pyran-4-carbonyl)piperidin-4-yl)-3-(4-(trifluoromethyl)phenyl)urea] | 3.16 | –
